{"source": "patent US9486475B2", "about": "“PPS for the prevention of potential adverse effects caused by CD3 specific binding domains” (AMGEN RESEARCH (MUNICH) GMBH, priority 2013, dated 2016)", "origin": "cited, not measured here", "conditions": "pH 6; cited from earlier work"}
{"substance": "β-D-Xylan, (1-4), 2,3-bis(hydrogen sulphate) [PPS]", "values": [{"measurement": "soluble in water", "value": 50, "unit": "%"}]}
